These results are taken from patent US7919495B2, “Pyridyl non-aromatic nitrogen-containing heterocyclic-1-carboxylate compound” (Astellas Pharma, Inc., priority 2005, dated 2011).

By UniProt entry, the sequences of proteins in these tests, tags left out.
UniProt O00519, whole entry: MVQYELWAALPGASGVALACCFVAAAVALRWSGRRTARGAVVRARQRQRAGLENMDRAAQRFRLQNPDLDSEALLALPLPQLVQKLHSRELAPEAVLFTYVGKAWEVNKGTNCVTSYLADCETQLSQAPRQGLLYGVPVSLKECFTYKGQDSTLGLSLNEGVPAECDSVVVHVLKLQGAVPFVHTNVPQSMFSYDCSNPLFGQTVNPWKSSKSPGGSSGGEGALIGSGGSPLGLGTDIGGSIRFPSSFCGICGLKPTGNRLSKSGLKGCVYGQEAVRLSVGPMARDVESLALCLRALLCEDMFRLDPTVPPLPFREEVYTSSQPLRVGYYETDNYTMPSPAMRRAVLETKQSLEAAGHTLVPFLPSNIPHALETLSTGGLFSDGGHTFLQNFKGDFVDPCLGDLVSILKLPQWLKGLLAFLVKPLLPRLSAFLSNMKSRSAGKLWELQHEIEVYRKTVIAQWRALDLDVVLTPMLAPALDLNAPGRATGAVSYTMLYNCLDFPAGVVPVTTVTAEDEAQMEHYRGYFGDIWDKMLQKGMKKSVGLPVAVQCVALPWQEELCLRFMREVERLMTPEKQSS

This assay has as its target FAAH in human bladder epithelial cancer-derived cell line 5678 cells (Homo sapiens, UniProt O00519). Nature of the assay: Screening for FAAH activity-inhibiting substance with human bladder epithelial cancer-derived cell (IC50, Table 64). It counts as cell-based. The settings on record: read-out: cell FAAH IC50.

Usually IC50 stands for the concentration that inhibits the measured activity by half. Consider `NC(=O)/C=C/c1cncc(OC(=O)N2CCC(CCc3ccccc3)CC2)c1`, for which the IC50 was determined as 0.075 nM.
For `NC(=O)c1cncc(OC(=O)N2CCC(CCc3ccc(C(=O)N4CC4)cc3)CC2)c1` the value was 0.14 nM.
